Measurements published in paper PMC9917735, “Optimization of the Hemolysis Assay for the Assessment of Cytotoxicity” (International Journal of Molecular Sciences, 2023).

System: washed human erythrocytes
Experiment: Hemolysis assay, washed human erythrocytes
Details: 1% washed human erythrocytes, OD 570 nm, peptides 100 μM, 60 min 37 °C, pos. 10% Triton X-100, neg. PBS; 3 x 2 replicates

In the case of `O` [dH2O, distilled water], the Calculated hemolysis ratio is reported as 71.2 ± 10.3%.
